Assay outcomes as filed in PubChem BioAssay.
A549 tox = counter-screen for Nrf2 inhibitors: cytotoxicity in A549 cells; A549 ARE-Fluc cells, CellTiter-Fluor viability, 18-24 h; Potency, µM (series often up to 46 µM), for inactives: at the highest dose activity change, negative = cytotoxicity, actives largely listed as inhibitors; hit rate 0.16% among 390,000; further: potency means the concentration at half of the fitted maximal effect; on the % scale 0 is the no-effect control and ±100 the full control effect
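A549 ARE-Fluc cells in 5% FBS OPTI-MEM, 5000 cells/well, rested 2 h then exposed to compounds in concentration-response for 18-24 h at 37 °C. Viability by CellTiter-Fluor fluorescence (Ex 405/Em 525) after 30 min; luciferase luminescence (BugLite, 15 min, RT) read afterwards.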
miR-21 reporter = raises the signal of a miR-21 reporter | Potency, µM (doses to about 38.3 µM), for inactives: top-dose reporter change, positive = more light | HeLa miR-21 FLuc reporter, luciferase, 48 h | AID 2288 | 340,000 tested, under 10 active; active = well fitted rising curve with a large enough effect; inconclusive = small, poorly fitted or top-dose-only effect; inactive = no such curve, though single readings can be large or run the other way;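 also: % of control where 0% means no effect; miR-21 action dims this reporter so a rising signal means less miR-21 action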
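HeLa cells stably expressing CMV-driven firefly luciferase with a downstream miR-21 binding sequence, endogenously expressing miR-21, were treated with titrations (up to about 40uM final) for 48 hours at 37 degree Celsius. Luciferase luminescence was read after lysis.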
Nrf2 activator = activates Nrf2 signaling; AREc32 ARE-luciferase reporter (MCF7-derived line), luminescence, 24 h; Potency, µM (titrated, usually from 46.1 µM), for the others: at the highest dose activation, usual class: activators; hit rate 0.31% among 410,000; AID 624171; further: potency means the concentration at half of the fitted maximal effect; % of control where 0% means no effect; nearly all actives have a fitted effect of over 65% in size
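Each well held 1000 AREc32 cells, which were incubated with compound for 24 hr at 37 deg C after overnight attachment, and ARE reporter activity was quantified by firefly luciferase luminescence.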
ClpP mod = qHTS Assay for Activators of ClpP | ATP-dependent Clp protease proteolytic subunit (Bacillus subtilis (strain 168)), P80244 | purified B. subtilis ClpP, FRET peptide cleavage, 20 min | Potency, µM (top dose mostly 57.5 µM), for the others: top-dose activity change, negative = active | hit rate 1.9% among 340,000; active means well fitted falling curve with a large enough effect; inconclusive means small, poorly fitted or top-dose-only effect; inactive means no such curve, though single readings can be large or run the other way; further: potency means the concentration at half of the fitted maximal effect; the source files actives as falling curves though it sought activators and does not explain the sign; nearly all actives have a fitted effect of over 65% in size
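Buffer: 100 mM Tris/HCl pH8, 100 mM KCl, 0.05% low protease BSA, 2.5% glycerol, 0.01% Tween-20. ClpP 10 microg/mL final; 20 min RT; delta FRET normalized to ADEP and DMSO controls.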
Nrf2 inh = inhibitors of Nrf2 signaling | Potency, µM (doses to about 46 µM), for inactives: at the highest dose activity change, negative = inhibition, actives largely listed as inhibitors | A549 ARE-Fluc reporter, luciferase luminescence, 18-24 h | hit rate 2.1% among 360,000; further: potency means the concentration at half of the fitted maximal effect; on the % scale 0 is the no-effect control and ±100 the full control effect; nearly all actives have a fitted effect of over 60% in size
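Two sequential reads on A549 ARE_Fluc cells exposed to compound for 18-24 h: a CellTiter-Fluor fluorescence read for viability, then a luciferase luminescence read for Nrf2/ARE activity.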
IL-2 act = activators of IL-2 | IL-2 activation reporter assay, cell-based qHTS; stimulated with anti-CD3/CD4/CD28 beads; in transgenic mouse T cells | activation, % (series mostly up to about 46 µM) | hit rate 0.065% among 360,000; in the data active means activation above about 50%; inconclusive means mostly about 30% to 49%; further: 0% is about no effect
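Using fluorescent plate cytometry, EGFP and DsRed are detected in transgenic mouse T cells stimulated 18 h at 37 degrees C with antibody-coated beads after 60 min compound pretreatment.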
Starred values were filed as active, the others as inactive; ? = inconclusive; . = not tested or not shown; [ ] = dose if it differs, or a comment. Rows were chosen to be rich in hits. Some 3.7% of all compounds tested hit in one or more screens of this group. Unless noted, the call rests on the fitted dose curve; in most records, active means well fitted curve in the direction sought with a large enough effect; inconclusive means small, poorly fitted or top-dose-only effect, or another doubt; inactive means no such curve, though single readings can be large; an effect the other way counts as inactive or inconclusive.

By UniProt entry, the sequences of proteins in these tests, tags left out.
ATP-dependent Clp protease proteolytic subunit (Bacillus subtilis (strain 168)), P80244, UniProt P80244, whole entry, looked up: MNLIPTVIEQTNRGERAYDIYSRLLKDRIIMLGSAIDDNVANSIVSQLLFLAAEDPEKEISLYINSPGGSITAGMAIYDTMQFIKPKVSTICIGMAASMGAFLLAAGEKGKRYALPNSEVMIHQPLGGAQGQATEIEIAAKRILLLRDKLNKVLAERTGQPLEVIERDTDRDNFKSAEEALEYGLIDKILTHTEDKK

Field names – A = A549 tox; B = miR-21 reporter; C = Nrf2 activator; D = ClpP mod; E = Nrf2 inh; F = IL-2 act
C=C(C)COc1ccc(-c2nc(N)ncc2-c2ccc(OC)cc2)c(O)c1
  A = . | B = 12.5% | C = . | D = . | E = . | F = .
COCCN1CCc2nc(SCC(=O)Nc3ccc(Br)cc3)[nH]c(=O)c2C1
  A = -3.9% | B = 1.2% | C = -0.6% | D = -3.6% | E = 3.6% | F = .
CCC(Sc1nc2cc(OC)c(OC)cc2c(=O)n1CCc1ccc(Cl)cc1)C(=O)NCCOC (stereo not drawn)
  A = -4.6% | B = -3.4% | C = -0.9% | D = -4.5% | E = . | F = .
Cc1[nH]c(=O)cc2ccccc12
  A = -5.2% | B = -2.5% | C = -0.2% | D = 22.4µM* | E = 7.3% | F = 0.6
Cc1cc(=O)[nH]c2ccccc12
  A = 0.2% | B = -11.2% | C = 0.0% | D = -17.4% | E = -11.8% | F = -1.1
O=C(CCc1ccccn1)NC1CCCc2c1cnn2-c1ccc(F)cc1F (stereo not drawn)
  A = -12.7% | B = 2.2% | C = 0.3% | D = -2.6% | E = -3.2% | F = 0.8
Cc1nnsc1C(=O)NC1CCCc2c1cnn2-c1ccccc1F (stereo not drawn)
  A = -15.5% | B = 19.6% | C = 1.9% | D = -15.4% | E = 2.06µM* | F = -4.1
O=C(CCc1ccncc1)NC1CCCc2c1cnn2-c1ccc(F)cc1F (stereo not drawn)
  A = -9.6% | B = 21.0% | C = -0.5% | D = 1.5% | E = 8.2µM* | F = -2.7
COc1ccc(NC(NC(=O)c2cccnc2)C(Cl)(Cl)Cl)cc1 (stereo not drawn)
  A = 2.1% | B = -5.1% | C = 0.4% | D = . | E = ? | F = -0.4
Cc1ccccc1NC(NC(=O)c1cccnc1)C(Cl)(Cl)Cl (stereo not drawn)
  A = 0.1% | B = -6.6% | C = -0.6% | D = 12.6µM* | E = -8.0% | F = -0.2
O=c1oc2ccc3ccccc3c2cc1-c1nnc(Nc2ccc(Cl)cc2Cl)s1
  A = 1.3% | B = -2.5% | C = 0.5% | D = -1.5% | E = 12.8% | F = .
CN(C)/C=C1\N=C(c2ccccc2)OC1=O
  A = 0.0% | B = -28.8% | C = -0.3% | D = . | E = 28.3% | F = -2.3
CN(C)/C(CN1CCN(C=O)CC1)=C1\N=C(c2ccccc2)OC1=O
  A = 2.3% | B = -0.2% | C = -0.7% | D = -0.6% | E = 23.1µM* | F = -2.7
Cc1ccc2c(c1)C(c1ccc(F)cc1)N(C(=O)c1ccc(S(=O)(=O)N3CCCCC3)cc1)CC(=O)N2 (stereo not drawn)
  A = 1.4% | B = 20.5% | C = 3.4% | D = -5.8% | E = -0.3%[9.27 µM] | F = .
CCN(CC(=O)Nc1cccc(OC)c1)c1ncnc2sc(C)c(C)c12
  A = -6.0% | B = -0.4% | C = 2.9% | D = -1.7% | E = 20.6µM* | F = -0.4

Only IL-2 act and miR-21 reporter (3 entries from above):
structure | IL-2 act | miR-21 reporter
COCCN1CCc2nc(SCC(=O)Nc3ccc(Br)cc3)[nH]c(=O)c2C1 | . | 1.2%
CCC(Sc1nc2cc(OC)c(OC)cc2c(=O)n1CCc1ccc(Cl)cc1)C(=O)NCCOC (stereo not drawn) | . | -3.4%
Cc1[nH]c(=O)cc2ccccc12 | 0.6 | -2.5%

Remaining list, next part:
Field names – A = A549 tox; B = miR-21 reporter; C = Nrf2 activator; D = ClpP mod; E = Nrf2 inh; F = IL-2 act
C[N+]1(CC(=O)c2ccc(F)cc2)CCc2ccccc2C1 (stereo not drawn)
  A = . | B = . | C = . | D = -0.2% | E = . | F = .
CCOc1ccccc1-c1nc(CN2CCN(C(=O)c3ccco3)CC2)c(C)o1
  A = 4.1% | B = -5.2% | C = -0.2% | D = -6.1% | E = -0.7% | F = -1.2
CCOc1ccccc1-n1c(CN2CCN(C(=O)c3ccco3)CC2)nc2ccccc2c1=O
  A = -22.2% | B = -12.4% | C = -1.1% | D = 0.8% | E = 16.4µM* | F = -3.3
Nc1ccc2oc3ccccc3c2c1
  A = -0.4% | B = -49.7% | C = 15.6% | D = 17.8µM* | E = ? | F = -0.7
Nc1ccc(C#Cc2ccc3oc4ccccc4c(=O)c3c2)cc1
  A = -8.6% | B = . | C = 8.7% | D = 0.3% | E = ? | F = 0.0
COc1ccc(CCn2c(=N)c(S(=O)(=O)c3ccc(C)cc3)cc3c(=O)n4ccccc4nc32)cc1
  A = -4.6% | B = -1.6% | C = 0.5% | D = -3.7% | E = ? | F = 60.7*
N=c1c(S(=O)(=O)c2ccc(Br)cc2)cc2c(=O)n3ccccc3nc2n1Cc1ccccc1
  A = 0.1% | B = -2.4% | C = 0.1% | D = -5.9% | E = ? | F = -3.7
Cc1ccc(Cn2c(=N)c(S(=O)(=O)c3ccc(Br)cc3)cc3c(=O)n4ccccc4nc32)cc1
  A = -8.4% | B = -8.4% | C = -0.9% | D = 0.9% | E = -30.7% | F = 95.0*
Cc1cccc(NC(=O)CSc2nc3ccc(N4C(=O)c5ccccc5C4=O)cc3s2)c1C
  A = ? | B = -0.1% | C = 0.2% | D = 0.5% | E = 20.6µM* | F = -2.4
N#CC1=C(N)N2C(=C(C#N)C1c1cccc(Br)c1)Nc1ccccc12 (stereo not drawn)
  A = 4.6% | B = -6.7% | C = 3.8% | D = . | E = -26.7% | F = 23.4
N#CC1=C(N)N2C(=C(C#N)C1c1ccc(Br)cc1)Nc1ccccc12 (stereo not drawn)
  A = ? | B = 4.6% | C = -1.2% | D = ? | E = 11.6µM* | F = -1.9
CC(=O)c1cc(-c2ccccc2)n(CC(=O)N2CCN(C3CCCC3)CC2)c1C
  A = 8.1% | B = -4.1% | C = 2.0% | D = 31.6µM* | E = ? | F = -2.1
O=C(NCC(=O)N1CCN(c2ncccn2)CC1)c1ccc(F)cc1
  A = -3.8% | B = . | C = 0.4% | D = 14.1µM* | E = ? | F = -1.8
Cc1cc(Sc2nnc(/N=C/N(C)C)s2)c2ccccc2n1
  A = -14.3% | B = ? | C = -3.9% | D = -2.6% | E = 7.31µM* | F = -0.8
Cc1cc(Sc2nnc(N)s2)c2ccccc2n1
  A = -4.0% | B = ? | C = -5.4% | D = 0.7% | E = ? | F = -3.7

Field names – A = A549 tox; B = miR-21 reporter; C = Nrf2 activator; D = ClpP mod; E = Nrf2 inh; F = IL-2 act
COCC(C)NC(=O)c1ccccc1OC(C)=O (stereo not drawn)
  A = 1.5% | B = -3.8% | C = 0.2% | D = 25.1µM* | E = -4.2% | F = 1.8
Cn1c(=O)c2c(ncn2CC(=O)N/N=C/C(Br)=C/c2ccccc2)n(C)c1=O
  A = -5.0% | B = -13.7% | C = ? | D = 2.0% | E = 6.6% | F = 1.1
O=C(Cn1cnc2ccccc21)N/N=C/C(Br)=C/c1ccccc1
  A = -5.4% | B = 4.5% | C = 7.08µM* | D = 1.2% | E = -20.8% | F = -3.0
CC1=NNC(=O)C1CC(=O)N/N=C/C(Br)=C/c1ccccc1 (stereo not drawn)
  A = -7.4% | B = 10.4% | C = ? | D = 0.2% | E = 1.0% | F = -0.3
O=C(N/N=C/C(Br)=C/c1ccccc1)c1cccs1
  A = ? | B = -49.2% | C = 10µM* | D = . | E = ? | F = 0.5
CC1C(=O)NN=C1C(=O)N/N=C\C(Br)=C\c1ccccc1 (stereo not drawn)
  A = -1.6% | B = 21.1% | C = 11.2µM* | D = . | E = ? | F = 0.4
O=C(N/N=C/C(Br)=C/c1ccccc1)c1n[nH]c2c1CCC2
  A = -8.0% | B = ? | C = 22.4µM* | D = -0.4% | E = -10.2% | F = 0.2
C=Cc1nc(Nc2cc(F)cc(F)c2)nc(NC2CCCC2)n1
  A = -2.9% | B = . | C = . | D = . | E = 10.4% | F = .
Cc1nn(-c2ccccc2)c(OC(=O)c2cccc(Br)c2)c1S(=O)(=O)c1ccccc1
  A = 0.6% | B = -0.6% | C = -1.1% | D = 0.0% | E = 1.3% | F = .
COc1ccc(C)cc1-n1cnc2cc(C(=O)NC3CCCCCC3)ccc21
  A = -9.4% | B = -3.1% | C = -0.7% | D = 0.0% | E = . | F = .
O=C(N/N=C/C(Br)=C/c1ccccc1)c1ccccc1F
  A = 2.9% | B = -17.1% | C = 12.6µM* | D = -16.8% | E = ? | F = -5.0
O=C(CC(Nc1ccc(F)cc1)C(=O)O)c1ccccc1 (stereo not drawn)
  A = 0.6% | B = -56.5% | C = 20µM* | D = -0.5% | E = ? | F = 1.4
Cc1ccc(NC(CC(=O)c2ccccc2)c2ccc(F)cc2)cc1 (stereo not drawn)
  A = 5.0% | B = -11.7% | C = 19.0% | D = 0.2% | E = ? | F = -1.4

One compound at a time, as listed above. Values in the order: A549 tox	miR-21 reporter	Nrf2 activator	ClpP mod	Nrf2 inh	IL-2 act
Listed for O=C(N/N=C/C(Br)=C/c1ccccc1)c1ccccc1F : 2.9%	-17.1%	12.6µM*	-16.8%	?	-5.0
Listed for Cn1c(=O)c2c(ncn2CC(=O)N/N=C/C(Br)=C/c2ccccc2)n(C)c1=O : -5.0%	-13.7%	?	2.0%	6.6%	1.1
